Measurements reported in US6635432B1, “Peptide potentiation of acid-sensory ion channel in pain” (University of Iowa Research Foundation, priority 2000, dated 2003).

Chains of the proteins cited; added tags and fusions are not shown. Lines headed by an entry give the natural chain unless they say otherwise; changes in a name come on top.
UniProt Q25011: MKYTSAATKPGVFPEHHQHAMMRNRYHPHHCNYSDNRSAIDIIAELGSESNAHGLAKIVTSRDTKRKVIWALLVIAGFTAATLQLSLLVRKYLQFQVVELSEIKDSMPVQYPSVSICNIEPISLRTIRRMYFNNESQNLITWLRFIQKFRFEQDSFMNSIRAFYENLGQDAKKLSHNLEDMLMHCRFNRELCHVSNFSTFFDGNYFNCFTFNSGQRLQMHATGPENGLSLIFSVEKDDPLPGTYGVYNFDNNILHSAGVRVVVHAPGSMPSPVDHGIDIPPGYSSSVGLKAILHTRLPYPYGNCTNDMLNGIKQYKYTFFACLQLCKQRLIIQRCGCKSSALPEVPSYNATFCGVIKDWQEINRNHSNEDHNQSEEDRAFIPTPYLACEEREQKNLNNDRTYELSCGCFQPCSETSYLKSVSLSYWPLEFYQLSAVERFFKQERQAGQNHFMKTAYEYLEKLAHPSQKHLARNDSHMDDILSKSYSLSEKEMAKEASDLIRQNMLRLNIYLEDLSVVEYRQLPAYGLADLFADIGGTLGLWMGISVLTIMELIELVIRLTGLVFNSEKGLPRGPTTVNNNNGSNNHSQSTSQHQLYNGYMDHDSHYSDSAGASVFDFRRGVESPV

What was measured:
DRASIC = biological target: T1, DRASIC (Mus musculus, UniProt Q6X1Y6); experiment: Two-electrode voltage-clamp of Xenopus oocytes expressing DRASIC; format: cell-based
T1 construct: expressed in transfected cells; host or cells: Xenopus laevis oocytes (nuclear injection of pMT3 plasmid)
T1 sequence (Q6X1Y6 1-530): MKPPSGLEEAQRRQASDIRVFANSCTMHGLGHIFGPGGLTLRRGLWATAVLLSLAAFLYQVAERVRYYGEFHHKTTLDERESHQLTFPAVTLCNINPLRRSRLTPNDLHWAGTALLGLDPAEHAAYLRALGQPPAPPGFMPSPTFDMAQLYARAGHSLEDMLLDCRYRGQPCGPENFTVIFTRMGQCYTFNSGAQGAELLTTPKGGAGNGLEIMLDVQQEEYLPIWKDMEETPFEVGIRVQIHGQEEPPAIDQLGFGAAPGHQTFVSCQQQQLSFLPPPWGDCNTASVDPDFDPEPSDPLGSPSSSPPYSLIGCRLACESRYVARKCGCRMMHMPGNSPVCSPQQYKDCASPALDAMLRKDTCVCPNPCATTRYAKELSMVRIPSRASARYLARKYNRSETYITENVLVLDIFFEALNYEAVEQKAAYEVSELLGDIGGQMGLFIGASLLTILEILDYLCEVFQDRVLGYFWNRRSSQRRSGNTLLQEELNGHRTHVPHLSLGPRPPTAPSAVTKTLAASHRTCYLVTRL
Description: (§1) Human ASICα was cloned from brain polyA RNA. Rat ASICβ and mouse DRASIC were cloned from DRG RNA. Human BNC1 was cloned as described in Price et al. (1996)(Price, M. P., Snyder, P. M., and Welsh, M. J. (1996). Cloning and expression of a novel human brain Na^+ channel. J Biol Chem 271, 7879-7882). Constructs were cloned into pMT3 for expression. The validity of the constructs was confirmed by DNA sequencing.
(§2) Expression of the cDNA constructs in Xenopus oocytes was accomplished by injection of plasmid DNA into the nucleus of defolliculated albino Xenopus laevis oocytes (Nasco, Fort Atkinson, Wis.) as described previously (Adams, C. M., Snyder, P. M., Price, M. P., and Welsh, M. J. (1998). Protons activate brain Na^+ channel 1 by inducing a conformational change that exposes a residue associated with neurodegeneration. J Biol Chem 273, 30204-30207). Plasmids were injected at concentrations of 100 ng/μl for most experiments. Oocytes were incubated in modified Barth's solution at 18° C. for 12-26 hr after injection. Cells injected with DRASIC were allowed to incubate for 24-48 hr before analysis.
(§3) Whole-cell currents in oocytes were measured using a two-electrode voltage-clamp as previously described (Adams, et al. (1998)). […]

ASICβ = biological target: T2, ASICβ (Rattus norvegicus, UniProt P55926); experiment: Two-electrode voltage-clamp of Xenopus oocytes expressing ASICβ; format: cell-based
T2 construct: expressed in transfected cells; host or cells: Xenopus laevis oocytes (nuclear injection of pMT3 plasmid)
T2 sequence (P55926 1-559 isoform P55926-3): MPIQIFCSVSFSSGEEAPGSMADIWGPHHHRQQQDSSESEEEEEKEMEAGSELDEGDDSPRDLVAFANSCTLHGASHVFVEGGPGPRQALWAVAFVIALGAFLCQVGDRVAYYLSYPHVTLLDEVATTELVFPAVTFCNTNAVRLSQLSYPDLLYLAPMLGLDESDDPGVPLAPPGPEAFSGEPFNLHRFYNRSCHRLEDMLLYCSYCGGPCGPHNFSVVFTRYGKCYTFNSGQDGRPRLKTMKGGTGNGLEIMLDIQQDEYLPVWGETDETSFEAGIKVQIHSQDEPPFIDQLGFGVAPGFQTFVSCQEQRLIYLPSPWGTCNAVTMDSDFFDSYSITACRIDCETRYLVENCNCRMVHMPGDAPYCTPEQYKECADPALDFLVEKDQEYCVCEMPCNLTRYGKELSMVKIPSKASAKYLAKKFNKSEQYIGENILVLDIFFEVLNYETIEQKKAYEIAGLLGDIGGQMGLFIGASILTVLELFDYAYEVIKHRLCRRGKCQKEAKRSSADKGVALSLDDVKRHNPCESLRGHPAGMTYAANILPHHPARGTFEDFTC
Description: as §1, §2, §3

FaNaCh = FaNaCh (Cornu aspersum, UniProt Q25011); conditions: read-out: FMRFamide half-maximal concentration reported for FaNaCh; Lingueglia, et al. (1995); cited from earlier work

For `CSCC[C@H](NC(=O)[C@@H](N)Cc1ccccc1)C(=O)N[C@@H](CCCNC(=N)N)C(=O)N[C@@H](Cc1ccccc1)C(N)=O` [FMRFamide, Phe-Met-Arg-Phe amide], the “effect on H+-gated DRASIC current (transient and sustained)” value (DRASIC; pH 4, peptide 100 μM) was “slowed inactivation of the transient current and increased the sustained current”, the “effect on H+-gated DRASIC current (inactivation, sustained current)” value (DRASIC; pH 5, FMRFamide 50 or 100 μM) was “inactivation was slowed and a sustained current was more apparent” and the “effect on H+-gated ASICβ current (inactivation, sustained current)” value (ASICβ; pH 5, peptide 50 μM) was “slowing of inactivation and the appearance of a sustained current at pH 5”. For the same compound, the “effect of peptide alone on channel” value (ASICβ; pH 7.4) was “had no effect on either channel” and the EC50 (FaNaCh) was 2000 nM.
